Patent US20250049798A1, “WEE1 PROTEIN KINASE DEGRADATION AGENT AND USE THEREOF” (HANGZHOU GLUBIO PHARMACEUTICAL CO. LTD., priority 2021, published 2025)

Protein sequences, listed by entry. Tags and fused reporters are not part of them.
UniProt P30291, whole entry: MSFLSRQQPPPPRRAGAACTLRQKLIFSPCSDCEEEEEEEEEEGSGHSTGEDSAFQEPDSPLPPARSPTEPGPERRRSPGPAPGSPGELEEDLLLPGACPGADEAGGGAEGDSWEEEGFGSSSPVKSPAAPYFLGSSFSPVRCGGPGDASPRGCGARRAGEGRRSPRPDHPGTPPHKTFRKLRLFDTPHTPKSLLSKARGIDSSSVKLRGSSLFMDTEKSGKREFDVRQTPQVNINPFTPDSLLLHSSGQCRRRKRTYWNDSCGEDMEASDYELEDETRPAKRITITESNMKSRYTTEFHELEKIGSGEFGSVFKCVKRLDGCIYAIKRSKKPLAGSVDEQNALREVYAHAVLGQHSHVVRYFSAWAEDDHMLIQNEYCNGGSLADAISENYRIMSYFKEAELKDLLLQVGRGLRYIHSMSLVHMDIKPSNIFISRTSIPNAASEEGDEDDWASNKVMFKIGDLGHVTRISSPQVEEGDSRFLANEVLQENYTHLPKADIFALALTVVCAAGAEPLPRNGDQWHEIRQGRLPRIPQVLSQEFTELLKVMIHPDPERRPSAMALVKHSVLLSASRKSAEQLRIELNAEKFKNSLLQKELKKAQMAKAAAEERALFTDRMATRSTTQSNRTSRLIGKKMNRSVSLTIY

Columns and labels:
HiBiT tagged Wee1 = HiBiT tagged Wee1 (Homo sapiens, UniProt P30291); experiment: Wee1 protein degradation assay (HiBiT assay); format: cell-based; conditions: engineered HT-1080 cells, 20 hours; for HiBiT Wee1: Dmax: maximum percentage of Wee1 degradation; for DC50: read-out: HiBIT Wee1: DC50
NCI-H1048 cells = experiment: NCI-H1048 cell proliferation assay (CTG assay); conditions: read-out: CTG cellular assay_H1048: IC50, 120 hours

Row | DC50 (HiBiT tagged Wee1) [nM] | IC50 (NCI-H1048 cells) [nM] | Structure (SMILES) | HiBiT Wee1: Dmax (HiBiT tagged Wee1)
1 | < 100 | < 25 | C=CCn1c(=O)c2cnc(Nc3ccc(N4CCN(CC5CCN(c6ccc(NC7CCC(=O)NC7=O)cc6)CC5)CC4)cc3)nc2n1-c1cccc(C(C)(C)O)n1 (stereo not drawn) | B (“B” represents 50% ≤ Dmax < 75% in the HiBiT assay)
2 | < 100 | 25 to 100 | C=CCn1c(=O)c2cnc(Nc3ccc(N4CCN(CCCc5cccc6c5n(C)c(=O)n6C5CCC(=O)NC5=O)CC4)cc3)nc2n1-c1cccc(C(C)(C)O)n1 (stereo not drawn) | B (“B” represents 50% ≤ Dmax < 75% in the HiBiT assay)
